Test results taken from patent publication EP4843990A1, “AMINO HETEROARYL MACROCYCLIC COMPOUNDS AS WELL AS PREPARATION METHOD THEREFOR AND USE THEREOF” (dated 2026).

The chains behind the UniProt entries cited, without tags or fusion partners.
UniProt P08183, whole entry: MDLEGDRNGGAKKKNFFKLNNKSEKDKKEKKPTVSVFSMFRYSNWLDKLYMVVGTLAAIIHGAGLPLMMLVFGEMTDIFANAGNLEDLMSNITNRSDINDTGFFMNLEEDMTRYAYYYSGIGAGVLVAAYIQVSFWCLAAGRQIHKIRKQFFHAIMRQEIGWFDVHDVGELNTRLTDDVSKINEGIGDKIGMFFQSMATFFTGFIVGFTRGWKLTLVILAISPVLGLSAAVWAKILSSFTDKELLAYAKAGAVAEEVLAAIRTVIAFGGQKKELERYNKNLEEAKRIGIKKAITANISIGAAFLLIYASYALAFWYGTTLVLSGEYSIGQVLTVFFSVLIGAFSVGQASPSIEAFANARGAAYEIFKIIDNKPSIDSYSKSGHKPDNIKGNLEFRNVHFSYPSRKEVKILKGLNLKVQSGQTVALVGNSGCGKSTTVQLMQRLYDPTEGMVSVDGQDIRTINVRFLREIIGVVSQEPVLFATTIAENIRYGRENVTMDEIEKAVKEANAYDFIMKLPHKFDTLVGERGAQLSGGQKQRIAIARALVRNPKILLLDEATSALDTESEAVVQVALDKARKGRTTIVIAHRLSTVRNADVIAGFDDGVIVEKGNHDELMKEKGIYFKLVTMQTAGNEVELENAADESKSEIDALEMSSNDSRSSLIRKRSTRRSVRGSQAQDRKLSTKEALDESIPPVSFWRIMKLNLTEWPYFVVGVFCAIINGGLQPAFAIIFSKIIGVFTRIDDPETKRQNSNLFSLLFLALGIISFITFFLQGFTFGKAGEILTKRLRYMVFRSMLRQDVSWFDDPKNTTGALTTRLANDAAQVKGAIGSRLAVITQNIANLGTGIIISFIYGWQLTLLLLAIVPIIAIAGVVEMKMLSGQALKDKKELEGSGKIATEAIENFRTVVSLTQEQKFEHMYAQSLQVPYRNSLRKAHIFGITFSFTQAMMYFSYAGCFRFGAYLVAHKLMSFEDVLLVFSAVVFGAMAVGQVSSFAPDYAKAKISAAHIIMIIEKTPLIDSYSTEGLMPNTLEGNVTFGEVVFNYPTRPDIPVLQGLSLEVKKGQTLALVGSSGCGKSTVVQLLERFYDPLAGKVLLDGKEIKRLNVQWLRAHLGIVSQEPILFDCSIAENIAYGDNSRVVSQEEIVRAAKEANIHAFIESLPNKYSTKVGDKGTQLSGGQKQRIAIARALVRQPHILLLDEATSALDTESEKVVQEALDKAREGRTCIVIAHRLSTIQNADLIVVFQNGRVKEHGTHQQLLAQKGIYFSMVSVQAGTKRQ

Columns and labels:
A431 = experiment: CellTiter-Glo cell proliferation inhibition assay; settings: read-out: Antiproliferative activity (IC50 (nM)) A431; A431 cells; 72 hours; CTG
PC9 = experiment: CellTiter-Glo cell proliferation inhibition assay; settings: read-out: Antiproliferative activity (IC50 (nM)) PC9; PC9 cells; 72 hours; CTG
[1] = Cassette pharmacokinetic study in mice; settings: ICR mice, PO, cassette dosing
NCI-H1975 = experiment: CellTiter-Glo cell proliferation inhibition assay; settings: read-out: Antiproliferative activity (IC50 (nM)) NCI-H1975; NCI-H1975 cells; 72 hours; CTG
Ba/F3 EGFR wt+EGF = experiment: CellTiter-Glo cell proliferation inhibition assay; settings: read-out: Antiproliferative activity (IC50 (nM)) Ba/F3 EGFR wt+EGF; Ba/F3 EGFR wt cells with EGF stimulation; 72 hours; CTG
Ba/F3 (EGFR-L858R/C797S) = experiment: CellTiter-Glo cell proliferation inhibition assay; settings: read-out: Antiproliferative activity (IC50 (nM)) Ba/F3 EGFR LR/CS; Ba/F3 (EGFR-L858R/C797S) cells; 72 hours; CTG
[2] = test system: Ba/F3 (EGFR-L858R/T790M/C797S); experiment: CellTiter-Glo cell proliferation inhibition assay; settings: read-out: Antiproliferative activity (IC50 (nM)) Ba/F3 EGFR LR/TM/CS; Ba/F3 (EGFR-L858R/T790M/C797S) cells; 72 hours; CTG
P-gp = P-gp (Homo sapiens, UniProt P08183); experiment: P-gp substrate evaluation assay (MDCKII-MDR1 Transwell permeability); settings: MDCKII-MDR1 cells; Papp basolateral to apical / apical to basolateral; 2 hours; pH 7.4

Row | SMILES | IC50 (A431) | IC50 (PC9) | Area Under the Curve AUC0-24h ([1]; 10 mg/kg) | Half-life T1/2 ([1]; 10 mg/kg) | Maximum Concentration Cmax ([1]; 10 mg/kg) | IC50 (NCI-H1975) | IC50 (Ba/F3 EGFR wt+EGF) | IC50 (Ba/F3 (EGFR-L858R/C797S)) | IC50 [2] | ER (Efflux Ratio) (P-gp) | Area Under the Curve AUC0-24h ([1]; 15 mg/kg) | Half-life T1/2 ([1]; 15 mg/kg) | Maximum Concentration Cmax ([1]; 15 mg/kg)
1 | CC1CCOc2ccncc2-c2nccc(n2)Nc2cc3c1ccc(N1C[C@H](CS(C)(=O)=O)[C@H]1C)c3cn2 (stereo partly shown) | 468 nM | 0.5 nM |  |  |  | 1.5 nM | 80 nM | 0.8 nM | 1.4 nM |  |  |  | 
2 | C[C@@H]1[C@@H](N(C)S(C)(=O)=O)CN1c1ccc2c3cc(ncc13)Nc1ccnc(n1)-c1cnccc1OCCN2C | 410 nM | 1.1 nM |  |  |  | 1.3 nM | 103 nM | 5 nM | 3.1 nM |  |  |  | 
3 | C[C@@H]1[C@@H](N(C)S(C)(=O)=O)CN1c1ccc2c3cc(ncc13)Nc1ccnc(n1)-c1cnn(C)c1OCC(F)(F)C2 |  | 17.4 nM |  |  |  | 9.9 nM |  |  |  |  |  |  | 
4 | C[C@@H]1[C@@H](N(C)S(C)(=O)=O)CN1c1ccc2c3cc(ncc13)Nc1ccnc(n1)-c1cnn(C)c1OCCCC2 | 2130 nM | 5.1 nM |  |  |  | 5.5 nM | 895 nM | 4 nM | 3 nM | 1.7 |  |  | 
5 | C[C@@H]1[C@@H](N(C)S(C)(=O)=O)CN1c1ccc2c3cc(ncc13)Nc1ccnc(n1)-c1cnn(C)c1OCCCN2C |  | 34 nM |  |  |  | 32 nM |  |  |  |  |  |  | 
6 | C[C@@H]1[C@@H](N(C)S(C)(=O)=O)CN1c1ccc2c3cc(ncc13)Nc1ccnc(n1)-c1cnn(C)c1OCCN2C | 632 nM | 3.3 nM |  |  |  | 1.9 nM | 133 nM | 4.1 nM | 2.3 nM | 3.2 |  |  | 
7 | Cc1cc2nc(n1)-c1cnccc1OCCCc1ccc(N3C[C@H](N(C)S(C)(=O)=O)[C@H]3C)c3cnc(cc13)N2 | 1240 nM | 18 nM |  |  |  | 33 nM | 372 nM | 2.8 nM | 3.5 nM |  |  |  | 
8 | Cc1nn(C)c2c1-c1nccc(n1)Nc1cc3c(ccc(N4C[C@H](N(C)S(C)(=O)=O)[C@H]4C)c3cn1)CCCO2 | 876 nM | 8.3 nM |  |  |  | 10.2 nM |  | 0.9 nM |  |  |  |  | 
9 | Cc1nn(C)c2c1-c1nccc(n1)Nc1cc3c(ccc(N4C[C@H](N(C)S(C)(=O)=O)[C@H]4C)c3cn1)N(C)CCO2 | 1380 nM | 5.8 nM |  |  |  | 11.4 nM |  | 1.2 nM |  |  |  |  | 
10 | CC1CCOc2ccncc2-c2nccc(n2)Nc2cc3c1ccc(N1C[C@H](CS(C)(=O)=O)[C@H]1C)c3cn2 (single isomer, unassigned) | 395 nM | 0.3 nM |  |  |  | 0.3 nM | 63 nM | 0.4 nM | 0.9 nM | 1 |  |  | 
11 | CC1CCOc2ccncc2-c2nccc(n2)Nc2cc3c1ccc(N1C[C@H](N(C)S(C)(=O)=O)[C@H]1C)c3cn2 (single isomer, unassigned) | 327 nM | 0.5 nM |  |  |  | 0.4 nM | 80 nM | 0.8 nM | 1.2 nM |  |  |  | 
12 | CC1COc2ccncc2-c2nccc(n2)Nc2cc3c1ccc(N1C[C@H](N(C)S(C)(=O)=O)[C@H]1C)c3cn2 (single isomer, unassigned) | 3350 nM | 10 nM |  |  |  | 36 nM |  |  |  |  |  |  | 
13 | CC1c2ccc(N3C[C@H](CS(C)(=O)=O)[C@H]3C)c3cnc(cc23)Nc2ccnc(n2)-c2cnn(C)c2OCC1(F)F (single isomer, unassigned) | 847 nM | 4.7 nM | 22063 ng·h/mL | 5.4 h | 1416 ng/mL | 4.1 nM | 98 nM | 0.7 nM | 0.9 nM |  |  |  | 
14 | Cc1nccc2c1-c1nccc(n1)Nc1cc3c(ccc(N4C[C@H](N(C)S(C)(=O)=O)[C@H]4C)c3cn1)C(C)CCO2 (single isomer, unassigned) | 582 nM | 0.2 nM |  |  |  | 2.8 nM | 106 nM | 1 nM | 2.5 nM |  | 13075 ng·h/mL | 3.0 h | 2950 ng/mL
15 | Cc1nn(C)c2c1-c1nccc(n1)Nc1cc3c(ccc(N4C[C@H](CS(C)(=O)=O)[C@H]4C)c3cn1)C(C)CCO2 (single isomer, unassigned) | 548 nM | 0.6 nM |  |  |  | 1 nM | 160 nM | 0.9 nM | 1.5 nM |  |  |  | 
16 | Cc1nn(C)c2c1-c1nccc(n1)Nc1cc3c(ccc(N4C[C@H](N(C5CC5)S(C)(=O)=O)[C@H]4C)c3cn1)C(C)C(F)(F)CO2 (single isomer, unassigned) | 823 nM | 1.7 nM | 31408 ng·h/mL | 4.6 h | 2857 ng/mL | 1.2 nM | 256 nM | 0.8 nM | 2.1 nM |  |  |  | 
17 | Cc1nn(C)c2c1-c1nccc(n1)Nc1cc3c(ccc(N4C[C@H](N(C5CC5)S(C)(=O)=O)[C@H]4C)c3cn1)C(C)CCO2 (single isomer, unassigned) | 653 nM | 0.5 nM |  |  |  | 0.9 nM | 210 nM | 0.6 nM | 1.2 nM |  |  |  | 

The remaining lines, values ahead:

Row | IC50 (A431) | IC50 (PC9) | Area Under the Curve AUC0-24h ([1]; 10 mg/kg) | Half-life T1/2 ([1]; 10 mg/kg) | Maximum Concentration Cmax ([1]; 10 mg/kg) | IC50 (NCI-H1975) | IC50 (Ba/F3 EGFR wt+EGF) | IC50 (Ba/F3 (EGFR-L858R/C797S)) | IC50 [2] | ER (Efflux Ratio) (P-gp) | Area Under the Curve AUC0-24h ([1]; 15 mg/kg) | Half-life T1/2 ([1]; 15 mg/kg) | Maximum Concentration Cmax ([1]; 15 mg/kg) | SMILES
18 | > 10000 nM | 30.6 nM |  |  |  |  |  |  |  |  |  |  |  | CC1CCOc2c(cnn2C)-c2nccc(n2)Nc2cc3c1ccc(N1CC4(C1)CN(S(C)(=O)=O)C4)c3cn2 (stereo not shown)
19 |  | 23 nM | 28665 ng·h/mL | 3.0 h | 2193 ng/mL |  |  |  |  |  |  |  |  | CC1CCOc2c(cnn2C)-c2nccc(n2)Nc2cc3c1ccc(N1CCC(N(C)S(C)(=O)=O)C1)c3cn2 (stereo not shown)
20 | 154 nM | 5.3 nM |  |  |  | 0.5 nM | 19 nM | 0.7 nM | 1.3 nM |  |  |  |  | CC1CCOc2c(cnn2C)-c2nccc(n2)Nc2cc3c1ccc(N1C[C@H](CS(C)(=O)=O)[C@H]1C)c3cn2 (stereo partly shown)
21 | 4190 nM | 15.2 nM |  |  |  |  |  |  |  |  |  |  |  | CC1CCOc2c(cnn2C)-c2nccc(n2)Nc2cc3c1ccc(N1C[C@H](N=S(C)(C)=O)[C@H]1C)c3cn2 (stereo partly shown)
22 | 810 nM | 2.1 nM |  |  |  |  |  | 1.1 nM |  |  |  |  |  | CC1CCOc2c(cnn2C)-c2nccc(n2)Nc2cc3c1ccc(N1C[C@H](NS(C)(=O)=O)[C@H]1C)c3cn2 (stereo partly shown)
23 | 857 nM | 12 nM |  |  |  |  |  | 13 nM |  |  |  |  |  | CC1COc2c(cnn2C)-c2nccc(n2)Nc2cc3c1ccc(N1C[C@H](N(C)S(C)(=O)=O)[C@H]1C)c3cn2 (stereo partly shown)
24 |  | 40 nM |  |  |  | 51 nM |  |  |  |  |  |  |  | C[C@@H]1[C@@H](CS(C)(=O)=O)CN1c1ccc2c3cc(ncc13)Nc1ccnc(n1)-c1cnn(C)c1OCCN2C
25 | 746 nM | 7.5 nM |  |  |  | 3.3 nM | 152 nM | 3.9 nM | 2.6 nM | 3.2 | 6648 ng·h/mL | 4.7 h | 1082 ng/mL | C[C@@H]1[C@@H](N(C)S(C)(=O)=O)CN1c1ccc2c3cc(ncc13)Nc1ccnc(n1)-c1cnn(C)c1OCCC2
26 | 612 nM | 0.3 nM |  |  |  | 0.6 nM | 189 nM | 0.3 nM | 0.5 nM |  |  |  |  | CCN([C@H]1CN(c2ccc3c4cc(ncc24)Nc2ccnc(n2)-c2cnn(C)c2OCCC3C)[C@@H]1C)S(C)(=O)=O (single isomer, unassigned)
27 |  | 9.8 nM |  |  |  | 28 nM |  |  |  |  |  |  |  | Cc1cc2nc(n1)-c1cnn(C)c1OCCC(C)c1ccc(N3C[C@H](CS(C)(=O)=O)[C@H]3C)c3cnc(cc13)N2 (single isomer, unassigned)
